What was measured:
Type in all cases: cell-based
D(3) dopamine receptor = D(3) dopamine receptor (Homo sapiens, UniProt P35462); experiment: In vitro binding affinity is the ability to displace [3H]spiperone from human Dopamine receptor D3 expressed in CHO-K1 cells.
D(2) dopamine receptor [1] = molecular target: T1, D(2) dopamine receptor (Homo sapiens, UniProt P14416); experiment: In vitro binding affinity is the ability to displace [3H]N-0437 from human Dopamine receptor D2 expressed in CHO-K1 cells
Procedure, shortened: (§1)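 Human D2L receptor expressed in CHO-K1 cells grown in F-12 medium with 10% fetal bovine serum under 5% CO2/95% air. Binding measured by displacement of [3H]spiperone (antagonist ligand) or [3H]N-0437 (agonist ligand); n = 3-4.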

The chains behind the UniProt entries cited, without tags or fusion partners.
UniProt P35462, whole entry: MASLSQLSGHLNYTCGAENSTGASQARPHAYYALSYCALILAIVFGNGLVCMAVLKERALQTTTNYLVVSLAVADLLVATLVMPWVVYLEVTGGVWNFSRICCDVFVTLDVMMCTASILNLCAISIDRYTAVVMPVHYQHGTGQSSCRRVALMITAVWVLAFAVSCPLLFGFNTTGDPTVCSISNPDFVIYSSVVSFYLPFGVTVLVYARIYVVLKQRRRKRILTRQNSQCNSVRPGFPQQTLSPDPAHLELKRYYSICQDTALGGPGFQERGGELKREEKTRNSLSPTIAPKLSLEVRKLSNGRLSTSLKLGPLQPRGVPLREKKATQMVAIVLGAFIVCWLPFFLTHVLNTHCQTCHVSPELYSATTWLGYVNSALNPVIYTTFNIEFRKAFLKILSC
UniProt P14416, whole entry: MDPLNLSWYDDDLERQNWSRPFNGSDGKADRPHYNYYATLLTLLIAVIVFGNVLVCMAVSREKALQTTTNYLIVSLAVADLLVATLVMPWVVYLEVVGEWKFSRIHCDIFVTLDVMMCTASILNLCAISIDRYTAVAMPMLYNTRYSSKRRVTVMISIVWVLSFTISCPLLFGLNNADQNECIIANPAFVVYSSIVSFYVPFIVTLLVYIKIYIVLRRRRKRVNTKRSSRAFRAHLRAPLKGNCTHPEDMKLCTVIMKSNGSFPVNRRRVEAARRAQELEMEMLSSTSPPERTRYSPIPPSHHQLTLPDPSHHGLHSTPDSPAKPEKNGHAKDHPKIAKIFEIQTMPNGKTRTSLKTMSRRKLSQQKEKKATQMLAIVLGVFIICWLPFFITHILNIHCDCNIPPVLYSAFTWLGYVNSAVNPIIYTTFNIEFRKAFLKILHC

D(2) dopamine receptor [2] = molecular target: T1, D(2) dopamine receptor; experiment: In vitro binding affinity is the ability to displace [3H]spiperone from human Dopamine receptor D2 expressed in CHO-K1 cells; procedure, shortened: as §1

Work on CCCN(CCC)C1CCc2c(O)cccc2C1 (stereo not drawn) [5-OH-DPAT] yielded a Ki (D(3) dopamine receptor) of 0.66 nM, a Ki (D(2) dopamine receptor [1]) of 6 nM and a Ki (D(2) dopamine receptor [2]) of 26 nM.

Reference: ChEMBL document CHEMBL1128506, “Synthesis and dopaminergic activity of pyridine analogs of 5-hydroxy-2-(di-n-propylamino)tetralin” (J Med Chem, 1995)
